Consider two molecules from ChEMBL document CHEMBL4725311, “Discovery of potent, orally bioavailable in vivo efficacious antagonists of the TLR7/8 pathway” (Bioorg Med Chem Lett, 2020).

Common to all, as to format: functional, organism-based
The target in test [1] is T1, Toll-like receptor 7 (Mus musculus) (UniProt P58681).
T1 sequence (whole entry): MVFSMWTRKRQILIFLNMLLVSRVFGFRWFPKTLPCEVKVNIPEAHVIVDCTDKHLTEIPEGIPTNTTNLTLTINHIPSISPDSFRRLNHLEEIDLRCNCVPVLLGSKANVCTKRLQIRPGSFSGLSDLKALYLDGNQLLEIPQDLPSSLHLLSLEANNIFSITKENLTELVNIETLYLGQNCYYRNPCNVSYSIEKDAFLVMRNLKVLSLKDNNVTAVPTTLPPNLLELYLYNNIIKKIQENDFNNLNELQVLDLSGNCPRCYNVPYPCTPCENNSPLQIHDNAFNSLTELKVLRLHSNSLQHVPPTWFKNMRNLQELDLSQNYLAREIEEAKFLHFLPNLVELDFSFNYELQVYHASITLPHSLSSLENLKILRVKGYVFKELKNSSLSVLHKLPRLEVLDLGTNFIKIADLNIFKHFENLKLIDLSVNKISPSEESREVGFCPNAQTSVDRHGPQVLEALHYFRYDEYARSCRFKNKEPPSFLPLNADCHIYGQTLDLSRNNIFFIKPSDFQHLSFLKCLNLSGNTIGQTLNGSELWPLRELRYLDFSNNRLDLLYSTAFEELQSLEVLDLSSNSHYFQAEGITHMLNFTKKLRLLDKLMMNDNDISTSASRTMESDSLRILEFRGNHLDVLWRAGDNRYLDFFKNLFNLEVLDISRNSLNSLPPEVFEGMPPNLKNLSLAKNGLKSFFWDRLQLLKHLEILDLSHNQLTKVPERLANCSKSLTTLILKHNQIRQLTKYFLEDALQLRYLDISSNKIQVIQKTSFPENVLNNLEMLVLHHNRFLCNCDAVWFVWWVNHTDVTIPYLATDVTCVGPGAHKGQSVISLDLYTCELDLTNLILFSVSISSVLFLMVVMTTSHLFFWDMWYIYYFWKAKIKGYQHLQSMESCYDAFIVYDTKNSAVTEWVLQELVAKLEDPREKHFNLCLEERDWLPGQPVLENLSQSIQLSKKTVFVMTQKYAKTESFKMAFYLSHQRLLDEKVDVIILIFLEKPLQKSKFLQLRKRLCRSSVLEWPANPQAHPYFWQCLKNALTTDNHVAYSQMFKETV
The test is described as follows: In vivo antagonist activity at TLR7 in 129Sv mouse assessed as inhibition of ssRNAR0006-induced IFNalpha release at 30 mg/kg, ip measured after 2 hrs.

For test [2], the target named is T1, Toll-like receptor 7 (Mus musculus). Put plainly: In vivo antagonist activity at TLR7 in 129Sv mouse assessed as inhibition of ssRNAR0006-induced IL6 release at 30 mg/kg, ip measured after 2 hrs.
The target is the same in test [3]. The test is described as follows: In vivo antagonist activity at TLR7 in 129Sv mouse assessed as inhibition of ssRNAR0006-induced IFNalpha release at 5 mg/kg, po measured after 2 hrs.
For test [4] the target is unchanged. The test is described as follows: In vivo antagonist activity at TLR7 in 129Sv mouse assessed as inhibition of ssRNAR0006-induced IL6 release at 5 mg/kg, po measured after 2 hrs.

For the molecule `Cn1nc(-c2ccc(OCCCC3CCNCC3)c(F)c2)c2cnc(N)nc21`, the INH in test [1] and in test [2] was 1540 nM throughout.
In the case of `Cn1nc(-c2ccc(OCC34CCC(N)(CC3)CC4)c(F)c2)c2cnc(N)nc21`, the INH in test [3] and in test [4] was 259 nM throughout.
